The experiment deals with Rat GGTase-I β subunit (rat) (UniProt P53610). Put plainly: X-ray crystal structure of rat GGTase-I.

A value given as a limit tells only on which side of the number the result lay.

“Rat GGTase-I α subunit (from UniProt Q04631 1-377) (enzyme)” had an interface between the α and β subunits of more than 3300 Å^2.
